# Measured values taken from ChEMBL document CHEMBL2218924, “A broad activity screen in support of a chemogenomic map for kinase signalling research and drug discovery” (Biochem J, 2013).
# Protein sequences, listed by entry. Tags and fused reporters are not part of them. Lines headed by an entry give the natural chain unless they say otherwise; changes in a name come on top.
# UniProt Q15759, whole entry: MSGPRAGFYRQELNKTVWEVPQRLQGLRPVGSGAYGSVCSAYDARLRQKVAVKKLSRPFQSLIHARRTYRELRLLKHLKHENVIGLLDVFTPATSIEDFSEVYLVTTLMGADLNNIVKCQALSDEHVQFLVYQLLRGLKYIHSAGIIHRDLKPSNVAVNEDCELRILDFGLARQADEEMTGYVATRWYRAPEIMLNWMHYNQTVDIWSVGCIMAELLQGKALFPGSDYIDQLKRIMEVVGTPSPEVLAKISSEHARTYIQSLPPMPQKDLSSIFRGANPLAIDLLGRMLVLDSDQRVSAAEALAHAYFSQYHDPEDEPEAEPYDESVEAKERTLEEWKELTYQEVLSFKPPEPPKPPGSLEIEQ
# UniProt Q96BR1: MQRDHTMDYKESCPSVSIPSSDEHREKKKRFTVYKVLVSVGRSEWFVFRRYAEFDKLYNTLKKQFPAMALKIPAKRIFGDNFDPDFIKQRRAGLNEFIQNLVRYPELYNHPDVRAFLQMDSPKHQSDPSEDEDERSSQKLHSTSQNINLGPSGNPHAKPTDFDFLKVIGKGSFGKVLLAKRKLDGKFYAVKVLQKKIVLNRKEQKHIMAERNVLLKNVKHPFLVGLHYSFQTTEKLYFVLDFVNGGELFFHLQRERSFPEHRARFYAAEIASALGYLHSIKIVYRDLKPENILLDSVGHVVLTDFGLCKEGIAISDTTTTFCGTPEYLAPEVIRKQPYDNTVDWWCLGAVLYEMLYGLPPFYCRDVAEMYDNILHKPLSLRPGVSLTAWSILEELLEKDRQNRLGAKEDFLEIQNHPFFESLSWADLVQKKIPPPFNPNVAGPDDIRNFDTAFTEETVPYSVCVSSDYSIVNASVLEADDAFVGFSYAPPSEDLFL
# UniProt Q96SB4, whole entry: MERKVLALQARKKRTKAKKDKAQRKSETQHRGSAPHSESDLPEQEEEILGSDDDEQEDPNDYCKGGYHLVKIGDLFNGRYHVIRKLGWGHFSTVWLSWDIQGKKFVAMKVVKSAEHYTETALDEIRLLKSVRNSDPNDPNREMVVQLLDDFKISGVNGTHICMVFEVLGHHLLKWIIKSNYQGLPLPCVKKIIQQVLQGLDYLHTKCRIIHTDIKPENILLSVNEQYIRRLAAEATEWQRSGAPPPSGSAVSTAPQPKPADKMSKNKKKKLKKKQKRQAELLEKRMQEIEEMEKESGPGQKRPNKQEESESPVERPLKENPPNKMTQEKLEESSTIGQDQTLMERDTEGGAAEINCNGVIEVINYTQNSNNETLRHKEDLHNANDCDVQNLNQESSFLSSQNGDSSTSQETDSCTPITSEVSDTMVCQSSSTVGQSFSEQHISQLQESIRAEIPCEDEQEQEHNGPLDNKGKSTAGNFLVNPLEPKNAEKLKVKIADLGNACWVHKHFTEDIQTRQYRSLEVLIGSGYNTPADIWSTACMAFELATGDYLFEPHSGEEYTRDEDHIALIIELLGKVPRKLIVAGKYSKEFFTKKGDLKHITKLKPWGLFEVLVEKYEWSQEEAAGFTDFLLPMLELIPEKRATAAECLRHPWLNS
# UniProt Q7L7X3: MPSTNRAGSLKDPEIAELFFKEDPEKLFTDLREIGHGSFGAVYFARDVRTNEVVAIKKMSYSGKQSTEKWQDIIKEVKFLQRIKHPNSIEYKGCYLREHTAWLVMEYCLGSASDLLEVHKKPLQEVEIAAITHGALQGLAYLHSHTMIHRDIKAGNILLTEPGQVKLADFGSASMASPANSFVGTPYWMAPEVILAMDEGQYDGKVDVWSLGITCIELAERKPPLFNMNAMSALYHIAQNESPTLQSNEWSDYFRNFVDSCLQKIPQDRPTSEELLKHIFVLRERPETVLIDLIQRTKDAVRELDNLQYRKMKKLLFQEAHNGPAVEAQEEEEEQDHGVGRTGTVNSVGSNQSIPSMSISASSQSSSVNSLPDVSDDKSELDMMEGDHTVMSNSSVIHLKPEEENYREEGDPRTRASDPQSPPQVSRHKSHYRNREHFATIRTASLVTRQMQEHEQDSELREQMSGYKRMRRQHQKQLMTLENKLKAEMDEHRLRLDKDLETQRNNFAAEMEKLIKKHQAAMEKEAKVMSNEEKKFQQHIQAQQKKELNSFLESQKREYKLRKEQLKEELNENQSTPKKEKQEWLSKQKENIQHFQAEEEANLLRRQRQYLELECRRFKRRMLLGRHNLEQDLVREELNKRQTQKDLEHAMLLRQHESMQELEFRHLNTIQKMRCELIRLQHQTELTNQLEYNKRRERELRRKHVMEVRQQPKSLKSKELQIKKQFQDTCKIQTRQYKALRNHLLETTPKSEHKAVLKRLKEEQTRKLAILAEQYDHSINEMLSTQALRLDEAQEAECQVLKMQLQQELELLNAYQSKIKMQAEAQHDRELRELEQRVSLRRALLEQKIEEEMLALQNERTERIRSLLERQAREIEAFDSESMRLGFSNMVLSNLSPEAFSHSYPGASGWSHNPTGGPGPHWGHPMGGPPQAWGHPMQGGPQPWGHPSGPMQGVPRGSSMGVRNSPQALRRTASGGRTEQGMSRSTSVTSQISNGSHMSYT
# UniProt Q08881: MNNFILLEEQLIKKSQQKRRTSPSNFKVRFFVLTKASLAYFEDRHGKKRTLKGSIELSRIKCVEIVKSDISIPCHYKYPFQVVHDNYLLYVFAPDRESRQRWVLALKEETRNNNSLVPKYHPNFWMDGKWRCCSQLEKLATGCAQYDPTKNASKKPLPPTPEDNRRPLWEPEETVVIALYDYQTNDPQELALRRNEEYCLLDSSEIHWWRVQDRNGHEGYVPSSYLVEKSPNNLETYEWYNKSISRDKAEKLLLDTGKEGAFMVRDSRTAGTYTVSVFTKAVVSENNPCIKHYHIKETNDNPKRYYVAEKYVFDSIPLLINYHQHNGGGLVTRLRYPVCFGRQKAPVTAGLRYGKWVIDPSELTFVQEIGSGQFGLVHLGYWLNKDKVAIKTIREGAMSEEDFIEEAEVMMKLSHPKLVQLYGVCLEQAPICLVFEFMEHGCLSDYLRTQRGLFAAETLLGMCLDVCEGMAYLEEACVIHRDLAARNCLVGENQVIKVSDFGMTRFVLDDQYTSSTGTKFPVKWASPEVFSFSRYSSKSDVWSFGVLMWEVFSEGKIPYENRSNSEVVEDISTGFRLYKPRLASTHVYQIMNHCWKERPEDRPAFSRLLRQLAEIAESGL
# UniProt P53779: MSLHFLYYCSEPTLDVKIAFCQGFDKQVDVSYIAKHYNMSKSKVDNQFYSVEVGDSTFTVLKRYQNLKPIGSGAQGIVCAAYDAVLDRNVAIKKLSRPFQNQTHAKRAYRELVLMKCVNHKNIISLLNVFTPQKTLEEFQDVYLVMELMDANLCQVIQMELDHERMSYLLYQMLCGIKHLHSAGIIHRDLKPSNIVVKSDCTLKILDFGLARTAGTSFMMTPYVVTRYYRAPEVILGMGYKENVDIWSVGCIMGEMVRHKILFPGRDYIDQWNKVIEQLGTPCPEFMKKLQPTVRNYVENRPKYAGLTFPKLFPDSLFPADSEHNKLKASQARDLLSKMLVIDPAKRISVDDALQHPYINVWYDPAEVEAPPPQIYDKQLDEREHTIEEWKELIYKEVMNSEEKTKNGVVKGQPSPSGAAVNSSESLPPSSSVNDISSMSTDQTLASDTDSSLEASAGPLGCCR
# UniProt P06239: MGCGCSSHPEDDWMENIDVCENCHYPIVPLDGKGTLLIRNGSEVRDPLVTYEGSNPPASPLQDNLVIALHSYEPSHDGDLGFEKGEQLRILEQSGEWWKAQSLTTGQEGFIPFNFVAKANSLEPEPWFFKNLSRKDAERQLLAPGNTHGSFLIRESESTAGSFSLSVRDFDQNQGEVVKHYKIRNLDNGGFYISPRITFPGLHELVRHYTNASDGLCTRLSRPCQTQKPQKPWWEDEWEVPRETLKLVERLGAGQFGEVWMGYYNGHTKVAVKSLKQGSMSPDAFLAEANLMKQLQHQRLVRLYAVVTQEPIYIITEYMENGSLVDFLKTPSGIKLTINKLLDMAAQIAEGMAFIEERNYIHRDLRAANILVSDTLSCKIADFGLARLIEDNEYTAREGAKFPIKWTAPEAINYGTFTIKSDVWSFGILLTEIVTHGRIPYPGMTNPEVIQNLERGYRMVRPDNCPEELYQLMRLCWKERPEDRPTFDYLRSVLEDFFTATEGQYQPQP
# UniProt P07948: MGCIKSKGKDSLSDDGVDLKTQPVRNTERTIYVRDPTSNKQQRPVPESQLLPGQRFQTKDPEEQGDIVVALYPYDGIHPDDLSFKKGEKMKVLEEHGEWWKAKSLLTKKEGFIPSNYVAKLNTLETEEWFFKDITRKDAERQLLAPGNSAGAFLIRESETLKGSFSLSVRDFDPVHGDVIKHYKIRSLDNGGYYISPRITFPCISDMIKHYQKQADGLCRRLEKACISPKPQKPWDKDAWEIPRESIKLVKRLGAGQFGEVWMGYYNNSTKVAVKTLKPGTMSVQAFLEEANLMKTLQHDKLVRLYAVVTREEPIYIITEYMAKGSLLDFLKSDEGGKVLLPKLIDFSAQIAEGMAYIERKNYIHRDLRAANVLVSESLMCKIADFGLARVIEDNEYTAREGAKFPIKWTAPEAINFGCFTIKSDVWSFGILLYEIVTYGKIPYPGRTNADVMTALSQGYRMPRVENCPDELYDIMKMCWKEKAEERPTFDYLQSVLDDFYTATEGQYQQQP
# UniProt P27361, whole entry: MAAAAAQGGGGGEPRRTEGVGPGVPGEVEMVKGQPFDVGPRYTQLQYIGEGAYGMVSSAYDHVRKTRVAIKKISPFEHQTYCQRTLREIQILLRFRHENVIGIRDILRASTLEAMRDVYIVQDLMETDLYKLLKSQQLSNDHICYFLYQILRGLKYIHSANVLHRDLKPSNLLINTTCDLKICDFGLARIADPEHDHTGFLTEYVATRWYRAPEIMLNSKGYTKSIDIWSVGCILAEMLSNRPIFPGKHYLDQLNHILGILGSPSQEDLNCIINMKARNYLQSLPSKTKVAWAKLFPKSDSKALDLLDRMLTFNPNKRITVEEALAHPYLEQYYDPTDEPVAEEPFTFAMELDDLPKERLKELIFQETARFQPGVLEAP
# UniProt P49137, whole entry, looked up: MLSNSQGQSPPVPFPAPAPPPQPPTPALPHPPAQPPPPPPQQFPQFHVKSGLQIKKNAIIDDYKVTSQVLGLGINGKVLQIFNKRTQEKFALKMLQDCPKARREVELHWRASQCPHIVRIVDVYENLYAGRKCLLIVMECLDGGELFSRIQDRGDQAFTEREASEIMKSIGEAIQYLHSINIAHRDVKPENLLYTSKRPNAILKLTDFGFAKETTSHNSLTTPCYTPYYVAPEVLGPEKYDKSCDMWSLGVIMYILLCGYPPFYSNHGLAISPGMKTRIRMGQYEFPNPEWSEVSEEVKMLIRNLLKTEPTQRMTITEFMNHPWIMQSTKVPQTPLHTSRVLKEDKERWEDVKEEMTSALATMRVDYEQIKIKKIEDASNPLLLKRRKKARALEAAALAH
# UniProt Q16644, whole entry, looked up: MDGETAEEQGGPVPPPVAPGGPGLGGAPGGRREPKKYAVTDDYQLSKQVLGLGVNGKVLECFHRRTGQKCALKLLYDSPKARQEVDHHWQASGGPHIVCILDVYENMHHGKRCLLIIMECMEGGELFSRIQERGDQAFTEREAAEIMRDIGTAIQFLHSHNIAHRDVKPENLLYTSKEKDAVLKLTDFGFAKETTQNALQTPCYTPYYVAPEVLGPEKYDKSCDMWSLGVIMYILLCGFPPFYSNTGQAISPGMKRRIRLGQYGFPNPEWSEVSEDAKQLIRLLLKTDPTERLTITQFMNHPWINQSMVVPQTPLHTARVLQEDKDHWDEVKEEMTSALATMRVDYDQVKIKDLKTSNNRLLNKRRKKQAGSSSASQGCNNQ
# UniProt Q14680: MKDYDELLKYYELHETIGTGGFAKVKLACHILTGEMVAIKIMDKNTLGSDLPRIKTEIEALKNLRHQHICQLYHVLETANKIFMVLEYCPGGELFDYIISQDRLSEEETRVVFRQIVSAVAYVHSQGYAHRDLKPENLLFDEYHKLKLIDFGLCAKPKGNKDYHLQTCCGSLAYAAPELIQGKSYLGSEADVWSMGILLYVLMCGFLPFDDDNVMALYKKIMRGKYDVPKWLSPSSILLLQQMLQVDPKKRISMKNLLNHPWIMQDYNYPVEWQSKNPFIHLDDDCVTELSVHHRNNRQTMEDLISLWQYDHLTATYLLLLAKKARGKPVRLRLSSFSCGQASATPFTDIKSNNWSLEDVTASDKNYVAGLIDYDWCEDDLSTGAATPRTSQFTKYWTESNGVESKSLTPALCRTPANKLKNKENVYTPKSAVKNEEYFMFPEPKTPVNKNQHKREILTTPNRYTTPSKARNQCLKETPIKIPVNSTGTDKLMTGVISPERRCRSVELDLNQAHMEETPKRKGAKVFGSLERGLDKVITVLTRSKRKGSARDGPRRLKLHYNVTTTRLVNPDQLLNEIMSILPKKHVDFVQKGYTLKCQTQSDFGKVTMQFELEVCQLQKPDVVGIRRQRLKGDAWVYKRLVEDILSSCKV
# For part of these data: Shown are results outside the selection of strong results, which stands elsewhere. Only a part is listed here, and it is no random draw.
# Assays:
# [1] = target: Proto-oncogene tyrosine-protein kinase ROS (Homo sapiens) (UniProt P08922); details: at 1 µM
# [2] = target: Proto-oncogene tyrosine-protein kinase ROS (Homo sapiens) (UniProt P08922); details: at 10 µM
# [3] = target: T1, Tyrosine-protein kinase receptor TYRO3 (Homo sapiens) (UniProt Q06418); details: at 1 µM
# T1 sequence (whole entry): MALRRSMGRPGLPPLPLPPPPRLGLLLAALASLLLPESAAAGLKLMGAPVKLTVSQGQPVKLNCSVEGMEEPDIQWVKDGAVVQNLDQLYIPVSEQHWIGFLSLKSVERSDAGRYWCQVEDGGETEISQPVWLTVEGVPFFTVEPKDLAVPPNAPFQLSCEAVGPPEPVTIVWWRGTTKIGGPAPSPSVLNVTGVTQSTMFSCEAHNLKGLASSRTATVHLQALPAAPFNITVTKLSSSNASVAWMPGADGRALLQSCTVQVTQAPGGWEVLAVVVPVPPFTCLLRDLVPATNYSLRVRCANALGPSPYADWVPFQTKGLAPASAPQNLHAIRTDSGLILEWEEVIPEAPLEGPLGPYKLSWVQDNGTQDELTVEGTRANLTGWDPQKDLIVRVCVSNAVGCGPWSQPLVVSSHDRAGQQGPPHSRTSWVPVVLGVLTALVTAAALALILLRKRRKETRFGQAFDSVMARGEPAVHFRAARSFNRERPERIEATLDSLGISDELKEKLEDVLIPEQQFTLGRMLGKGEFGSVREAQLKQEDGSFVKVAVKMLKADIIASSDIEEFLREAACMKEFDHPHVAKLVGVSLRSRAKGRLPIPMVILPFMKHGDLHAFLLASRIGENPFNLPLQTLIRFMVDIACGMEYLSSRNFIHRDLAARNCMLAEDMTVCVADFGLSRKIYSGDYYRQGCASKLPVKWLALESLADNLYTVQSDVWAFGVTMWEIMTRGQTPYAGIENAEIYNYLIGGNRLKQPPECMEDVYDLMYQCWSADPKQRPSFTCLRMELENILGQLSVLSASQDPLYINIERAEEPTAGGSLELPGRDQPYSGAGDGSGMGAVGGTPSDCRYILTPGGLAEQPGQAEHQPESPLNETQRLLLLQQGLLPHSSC
# [4] = target: T1, Tyrosine-protein kinase receptor TYRO3 (Homo sapiens); details: at 10 µM
# [5] = target: Mitogen-activated protein kinase 11 (Homo sapiens) (UniProt Q15759); details: at 1 µM
# [6] = target: Mitogen-activated protein kinase 11 (Homo sapiens) (UniProt Q15759); details: at 10 µM
# [7] = target: T2, Mitogen-activated protein kinase 13 (Homo sapiens) (UniProt O15264); details: at 10 µM
# T2 sequence (whole entry): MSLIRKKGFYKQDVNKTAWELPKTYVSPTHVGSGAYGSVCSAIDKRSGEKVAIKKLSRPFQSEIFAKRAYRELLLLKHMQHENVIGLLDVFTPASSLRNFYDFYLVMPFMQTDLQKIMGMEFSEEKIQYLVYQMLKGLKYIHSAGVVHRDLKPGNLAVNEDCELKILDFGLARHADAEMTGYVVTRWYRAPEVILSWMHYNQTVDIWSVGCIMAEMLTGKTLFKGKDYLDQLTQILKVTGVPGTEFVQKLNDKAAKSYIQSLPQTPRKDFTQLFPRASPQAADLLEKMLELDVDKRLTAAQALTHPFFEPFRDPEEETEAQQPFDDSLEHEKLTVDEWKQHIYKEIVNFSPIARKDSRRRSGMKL
# [8] = target: Serine/threonine-protein kinase Sgk3 (Homo sapiens) (UniProt Q96BR1); details: at 1 µM
# [9] = target: SRSF protein kinase 1 (Homo sapiens) (UniProt Q96SB4); details: at 1 µM
# [10] = target: Serine/threonine-protein kinase TAO1 (Homo sapiens) (UniProt Q7L7X3); details: at 1 µM
# [11] = target: T3, TGF-beta receptor type-1 (Homo sapiens) (UniProt P36897); details: at 10 µM
# T3 sequence (whole entry): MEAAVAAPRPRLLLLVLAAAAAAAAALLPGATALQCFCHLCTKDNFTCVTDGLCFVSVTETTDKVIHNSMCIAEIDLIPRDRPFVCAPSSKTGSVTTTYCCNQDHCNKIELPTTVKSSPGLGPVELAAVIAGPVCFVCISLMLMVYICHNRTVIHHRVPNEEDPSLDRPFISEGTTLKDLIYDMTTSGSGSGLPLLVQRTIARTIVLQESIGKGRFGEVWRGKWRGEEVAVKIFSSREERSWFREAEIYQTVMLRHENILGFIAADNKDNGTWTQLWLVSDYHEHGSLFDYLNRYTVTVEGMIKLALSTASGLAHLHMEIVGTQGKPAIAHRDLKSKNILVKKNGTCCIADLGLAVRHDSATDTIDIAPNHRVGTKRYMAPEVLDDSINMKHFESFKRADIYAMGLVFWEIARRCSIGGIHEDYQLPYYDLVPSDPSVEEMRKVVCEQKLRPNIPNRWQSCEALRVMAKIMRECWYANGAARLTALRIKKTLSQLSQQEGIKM
# [12] = target: Insulin-like growth factor 1 receptor (Homo sapiens) (UniProt P08069); details: at 10 µM
# [13] = target: Inhibitor of nuclear factor kappa-B kinase subunit beta (Homo sapiens) (UniProt O14920); details: at 1 µM
# [14] = target: Inhibitor of nuclear factor kappa-B kinase subunit beta (Homo sapiens) (UniProt O14920); details: at 10 µM
# [15] = target: Tyrosine-protein kinase ITK/TSK (Homo sapiens) (UniProt Q08881); details: at 1 µM
# [16] = target: Mitogen-activated protein kinase 10 (Homo sapiens) (UniProt P53779); details: at 1 µM
# [17] = target: Tyrosine-protein kinase Lck (Homo sapiens) (UniProt P06239); details: at 1 µM
# [18] = target: Tyrosine-protein kinase Lyn (Homo sapiens) (UniProt P07948); details: at 1 µM
# [19] = target: Mitogen-activated protein kinase 3 (Homo sapiens) (UniProt P27361); details: at 1 µM
# [20] = target: MAP kinase-activated protein kinase 2 (Homo sapiens) (UniProt P49137); details: at 10 µM
# [21] = target: MAP kinase-activated protein kinase 3 (Homo sapiens) (UniProt Q16644); details: at 10 µM
# [22] = target: Maternal embryonic leucine zipper kinase (Homo sapiens) (UniProt Q14680); details: at 1 µM
# [23] = target: T4, Dual specificity mitogen-activated protein kinase kinase 6 (Homo sapiens) (UniProt P52564); details: at 1 µM
# T4 sequence (whole entry): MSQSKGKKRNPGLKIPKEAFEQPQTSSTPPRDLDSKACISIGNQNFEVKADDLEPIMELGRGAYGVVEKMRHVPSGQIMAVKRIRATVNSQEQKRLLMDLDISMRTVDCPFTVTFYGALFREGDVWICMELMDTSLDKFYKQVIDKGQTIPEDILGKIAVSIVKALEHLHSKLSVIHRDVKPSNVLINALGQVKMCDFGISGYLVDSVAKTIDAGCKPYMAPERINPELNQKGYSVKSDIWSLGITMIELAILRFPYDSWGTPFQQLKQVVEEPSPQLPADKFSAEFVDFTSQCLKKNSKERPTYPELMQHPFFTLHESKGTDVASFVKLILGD
# [24] = target: T4, Dual specificity mitogen-activated protein kinase kinase 6 (Homo sapiens); details: at 10 µM
# [25] = target: Serine/threonine-protein kinase MRCK alpha (Homo sapiens) (UniProt Q5VT25); details: at 1 µM
# [26] = target: Serine/threonine-protein kinase MRCK alpha (Homo sapiens) (UniProt Q5VT25); details: at 10 µM
# [27] = target: Tyrosine-protein kinase Mer (Homo sapiens) (UniProt Q12866); details: at 1 µM
structure (smiles),measurement,setting,value
O=C1NC(=O)C(c2cn(CCCn3ccnc3)c3ccccc23)=C1Nc1ccccc1,residual activity,[1],91%
same,residual activity,[2],86%
same,residual activity,[3],95%
same,residual activity,[4],101%
same,residual activity,[5],97%
same,residual activity,[6],102%
same,residual activity,[7],91%
same,residual activity,[8],88%
same,residual activity,[9],99%
same,residual activity,[10],87%
same,residual activity,[11],83%
same,residual activity,[12],81%
same,residual activity,[13],95%
same,residual activity,[14],95%
same,residual activity,[15],97%
same,residual activity,[16],84%
same,residual activity,[17],102%
same,residual activity,[18],86%
same,residual activity,[19],85%
same,residual activity,[20],84%
same,residual activity,[21],84%
same,residual activity,[22],89%
same,residual activity,[23],90%
same,residual activity,[24],85%
same,residual activity,[25],99%
same,residual activity,[26],89%
same,residual activity,[27],95%
